Measured values: PubChem BioAssay AID624391 (National Center for Advancing Translational Sciences (NCATS), 2012)
The entries are a selection whose mix differs from that of the whole data set. The source made the active and inactive calls. Calls follow the shape of the dose curve; as a rule, active = well fitted curve in the direction sought with a large enough effect; inactive = no such curve, though single readings can be large or run the other way.

Chains of the proteins cited; added tags and fusions are not shown.
UniProt P14618, whole entry, looked up: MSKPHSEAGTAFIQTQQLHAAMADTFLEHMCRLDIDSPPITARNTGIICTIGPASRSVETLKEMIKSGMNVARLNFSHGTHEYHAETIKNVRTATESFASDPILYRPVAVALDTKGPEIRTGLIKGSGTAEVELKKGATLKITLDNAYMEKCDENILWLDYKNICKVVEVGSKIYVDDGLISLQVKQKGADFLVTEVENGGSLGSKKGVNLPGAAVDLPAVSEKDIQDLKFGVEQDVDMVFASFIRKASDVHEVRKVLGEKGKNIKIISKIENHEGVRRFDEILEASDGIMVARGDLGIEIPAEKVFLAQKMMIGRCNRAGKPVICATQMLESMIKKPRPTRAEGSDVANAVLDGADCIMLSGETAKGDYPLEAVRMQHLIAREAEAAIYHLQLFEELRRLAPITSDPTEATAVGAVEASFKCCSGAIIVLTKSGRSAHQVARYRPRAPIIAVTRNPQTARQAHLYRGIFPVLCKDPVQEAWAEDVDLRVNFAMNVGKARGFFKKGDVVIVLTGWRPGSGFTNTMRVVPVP

Molecular target: Pyruvate kinase PKM (Homo sapiens) (UniProt P14618)
Experiment: qHTS for Activators of Human Muscle Isoform 2 Pyruvate Kinase: Extended Characterization for Probe 2
Settings: purified hPK-M2, Kinase-Glo ATP luminescence, 1 h
Procedure: Human pyruvate kinase muscle 2 (hPK-M2) enzyme was supplied as a highly purified (>95% pure) preparation from Harvard Medical School and assayed for its ability to generate ATP from ADP using phosphoenolpyruvate (PEP) as a substrate. ATP generation was detected in a coupled reaction by luciferase-mediated luminescence, an ATP-dependent process. Pyruvate kinase substrates, PEP and ADP, were present in the assay at Km and approximately 10-fold below Km respectively. The enzyme was assayed at an intermediate level of activity to screen for both inhibitors and activators. NIH Chemical Genomics Center [NCGC] NIH Molecular Libraries Probe Centers Network [MLPCN] MLPCN Grant: MH085679 Assay Submitter (PI): Matthew G. Vander Heiden, Harvard Medical School
Three uL of substrate mix (at r.t.) in assay buffer (50 mM Imidazole pH7.2, 50 mM KCl, 7 mM MgCl2, 0.01% Tween 20, 0.05% BSA) was dispensed into white solid bottom 1,536 well microtiter plates so that the final concentrations of substrates in the assay were 0.1 mM ADP and 0.5 mM PEP. 23 nL of compound were delivered by a pin tool and 1 uL of enzyme mix (final concentration of 0.1 nM) in assay buffer (4 degree Celsius) was added. […] Two uL of detection mix (Kinase-Glo, Promega; at 4 degree Celsius protected from light) was added and luminescence read by a ViewLux (Perkin Elmer) at 1 second exposure/plate. […]

Structure (SMILES) | Potency
Nc1cccc(S(=O)(=O)N2CCCN(S(=O)(=O)c3ccc4c(c3)OCCO4)CC2)c1 | active: 130 nM
